Reference: patent publication US6890716B1, “Recombinant cell line and screening method for identifying agents which regulate apoptosis and tumor suppression” (Howard Hughes Medical Institute, priority 1998, dated 2005)

Tested on: p53A cells
Test: Apoptotic morphology of transfected cells by indirect immunofluorescence at the permissive temperature
Assay type: cell-based, rat
Conditions: 10 μg plasmid DNA, permissive temperature (FIG. 14)
Experimental: Cell viability was measured by trypan blue staining. Cells were trypsinized, centrifuged, resuspended in PBS, and counted using a hemocytometer after diluting in trypan blue. Apoptotic morphology was assessed by scoring for cells that are positive by fluorescence microscopy and are rounded and non adherent. Cell morphology was also documented by photography at 100× magnification on a Nikon phase-contrast microscope and camera using Kodak film.
Cells were fixed in cold methanol prior to incubation with primary antibodies. Subsequent to several washes in PBS, cells were incubated with rhodamine-conjugated goat anti-mouse antibody or fluorescein-conjugated goat anti-rabbit antibody. Cells were then washed, mounted and analyzed by fluorescence microscopy using a Nikon FXA epifluorescence microscope.
The indicated amount of plasmid DNA was transfected by electroporation. […]
In addition, we determined the percentage of cells with apoptotic morphology that were ectopically expressing wild-type p300 ectopically or the E1A-binding mutant of p300 following transient transfection with 24 μg of plasmid DNA. Apoptotic morphology was determined by counting cells that were rounded in shape and detaching from the dish. […]

Q: For “wild-type mdm2: Wild-type mdm2 expressed from pCMVβ-X2 (pCOC-X2)”, which “percentage of apoptotic cells among expressing cells” value is on record?
A: Its value is 10%.
